Reference: US20240166755A1, “CHIMERIC ANTIGEN RECEPTORS TARGETING CANCER” (University of Southern California, priority 2016, published 2024)

B1: hTPO-(1-187)-Myc-CD28z-T2A-PAC(031915-U04): CAR targeting MPL: receptor binding domain of human thrombopoietin fused to CD28 and CD3z domains (protein)
chain: MELTELLLVVMLLLTARLTLSSPAPPACDLRVLSKLLRDSHVLHSRLSQCPEVHPLPTPVLLPAVDFSLGEWKTQMEETKAQDILGAVTLLLEGVMAARGQLGPTCLSSLLGQLSGQVRLLLGALQSLLGTQLPPQGRTTAHKDPNAIFLSFQHLLRGKVRFLMLVGGSTLCVRRAPPTTAVPSRTSTREQKLISEEDLKIEVMYPPPYLDNEKSNGTIIHVKGKHLCPSPLFPGPSKPFWVLVVVGGVLACYSLLVTVAFIIFWVRSKRSRLLHSDYMNMTPRRPGPTRKHYQPYAPPRDFAAYRSRVKFSRSADAPAYQQGQNQLYNELNLGRREEYDVLDKRRGRDPEMGGKPRRKNPQEGLYNELQKDKMAEAYSEIGMKGERRRGKGHDGLYQGLSTATKDTYDALHMQALPPRSSGSGEGRGSLLTCGDVEENPGPHMTEYKPTVRLATRDDVPRAVRTLAAAFADYPATRHTVDPDRHIERVTELQELFLTRVGLDIGKVWVADDGAAVAVWTTPESVEAGAVFAEIGPRMAELSGSRLAAQQQMEGLLAPHRPKEPAWFLATVGVSPDHQGKGLGSAVVLPGVEAAERAGVPAFLETSAPRNLPFYERLGFTVTADVEVPEGPRTWCMTRKPGA
modifications: listed as DNA
B2: mTPO-(1-187)-Myc-CD28z-T2A-PAC(031915-V03): CAR targeting MPL: receptor binding domain of mouse thrombopoietin fused to CD28 and CD3z domains (protein)
chain: MELTDLLLAAMLLAVARLTLSSPVAPACDPRLLNKLLRDSHLLHSRLSQCPDVDPLSIPVLLPAVDFSLGEWKTQTEQSKAQDILGAVSLLLEGVMAARGQLEPSCLSSLLGQLSGQVRLLLGALQGLLGTQLPLQGRTTAHKDPNALFLSLQQLLRGKVRFLLLVEGPTLCVRRTLPTTAVPSSTSTREQKLISEEDLKIEVMYPPPYLDNEKSNGTIIHVKGKHLCPSPLFPGPSKPFWVLVVVGGVLACYSLLVTVAFIIFWVRSKRSRLLHSDYMNMTPRRPGPTRKHYQPYAPPRDFAAYRSRVKFSRSADAPAYQQGQNQLYNELNLGRREEYDVLDKRRGRDPEMGGKPRRKNPQEGLYNELQKDKMAEAYSEIGMKGERRRGKGHDGLYQGLSTATKDTYDALHMQALPPRSSGSGEGRGSLLTCGDVEENPGPHMTEYKPTVRLATRDDVPRAVRTLAAAFADYPATRHTVDPDRHIERVTELQELFLTRVGLDIGKVWVADDGAAVAVWTTPESVEAGAVFAEIGPRMAELSGSRLAAQQQMEGLLAPHRPKEPAWFLATVGVSPDHQGKGLGSAVVLPGVEAAERAGVPAFLETSAPRNLPFYERLGFTVTADVEVPEGPRTWCMTRKPGA
modifications: listed as DNA
B3: CD8SP-175-(vL-vH)-Myc-CD28z-T2A-PAC(031615-Q04): CAR construct targeting MPL, 175 scFv, CD28 costimulatory domain (protein)
chain: MALPVTALLLPLALLLHAARPDQIVLTQSPAIMSASPGEKVTISCSASSSVSYMYWYQQKPGSSPKPWIYRTSNLASGVPARFSGSGSGTSYSLTISNMEAEDAAAYYCQQYHSYPTTFGGGTKLEVKGGGGSGGGGSGGGGSEVQLVESGGGLVQPKGSLKLSCAASGFSFNTYAMNWVRQAPGKGLEWIAHIRSKSNNFATYYADSVKDRFSISRDASENILFLQMNNLKTEDTAMYYCVRQGGDFPMDYWGQGTSVTVSSTREQKLISEEDLKIEVMYPPPYLDNEKSNGTIIHVKGKHLCPSPLFPGPSKPFWVLVVVGGVLACYSLLVTVAFIIFWVRSKRSRLLHSDYMNMTPRRPGPTRKHYQPYAPPRDFAAYRSRVKFSRSADAPAYQQGQNQLYNELNLGRREEYDVLDKRRGRDPEMGGKPRRKNPQEGLYNELQKDKMAEAYSEIGMKGERRRGKGHDGLYQGLSTATKDTYDALHMQALPPRSSGSGEGRGSLLTCGDVEENPGPHMTEYKPTVRLATRDDVPRAVRTLAAAFADYPATRHTVDPDRHIERVTELQELFLTRVGLDIGKVWVADDGAAVAVWTTPESVEAGAVFAEIGPRMAELSGSRLAAQQQMEGLLAPHRPKEPAWFLATVGVSPDHQGKGLGSAVVLPGVEAAERAGVPAFLETSAPRNLPFYERLGFTVTADVEVPEGPRTWCMTRKPGA
modifications: listed as DNA
notes: CAR construct targeting MPL, 175 scFv, CD28 costimulatory domain

Biological target: T1, extracellular domain (ECD) of human MPL (Homo sapiens, UniProt P40238)
T1 construct: made in house; host or cells: 293FT cells, conditioned medium used unpurified
Assay: NLuc assay to detect CAR: binding of MPL-ECD-GGSG-NLuc-AcV5 supernatant to CAR-expressing cells
Details: for binding to MPL-ECD-GGSG-NLuc-AcV5 (NLuc assay): transiently transfected 293FT cells
Description: A frequent problem in the field of chimeric antigen receptors is lack of a sensitive and specific assay that can detect cells that express chimeric antigen receptors. To detect the expression of CAR targeting CD19 and MPL, we fused the extracellular domains (ECD) of human CD19 and human MPL, including their signal peptides, in frame with nucleotide sequence encoding a Gly-Gly-Ser-Gly linker, NLuc (without a secretory signal) and an AcV5 epitope tag. In the case of CD19 construct, a FLAG tag was inserted between the signal peptide and the beginning of the extracellular domain. The whole cassette was cloned downstream of the human EF1α promoter into the lentiviral vector pLenti-EF1 to make constructs pLenti-EF1-FLAG-CD19-ECD-GGSG-NLuc-AcV5 and pLenti-EF1-MPL-ECD-GGSG-NLuc-AcV5, respectively. The nucleic acid sequences of the insert fragments are provided in SEQ ID NO: 926 and SEQ ID NO: 925, respectively. The protein sequences of the insert fragments are provided in SEQ ID NO: 2671 and SEQ ID NO: 2670, respectively. The constructs were transfected into 293FT cells by calcium phosphate co-precipitation method. Approximately 20 h post-transfection, the cell culture media was replaced with fresh medium. The conditioned media containing the secreted FLAG-CD19-ECD-GGSG-NLuc-AcV5 (also referred to as CD19-GGSG-NLuc-AcV5) and MPL-ECD-GGSG-NLuc-AcV5 (also referred to as MPL-GGSG-NLuc-AcV5) proteins was collected 48-72 h later.
Next day morning, approximately 18 hours post-transfection, cells were collected by pipetting up and down in 1.5 ml tubes. The tubes were spun down at 1500 RPM for 5 minutes. Then the cells were washed once with wash buffer (1% FBS in PBS), followed by incubation with 1001 of indicated secretory forms of GGS NLuc supernatants. The cells were incubated at 4° C. for 1 hour.
After the incubation, cells were washed 5 times with wash buffer (1 ml each wash). Finally the pellet was resuspended in 200 μl wash buffer. Resuspended cells were placed in a 384 well plate in triplicate (25 μl each). Luciferase activity was measured using a BioTek synergy H4 plate reader after addition of NLuc assay buffer (Promega) containing native coelenterazine (25 μl each well) directly to each well (one at a time).
T cells expressing the different MPL CAR constructs were incubated with MPL-GGSG-NLuc-AcV5 and CD19-GGSG-NLuc-AcV5 supernatants and after extensive washes assayed for NLuc activity essentially as described in the preceding example.

| Molecule | binding to MPL-ECD-GGSG-NLuc-AcV5 (NLuc assay) | binding to MPL-GGSG-NLuc AcV5 (NLuc assay) (T cells expressing the CAR) |
| --- | --- | --- |
| B1 | modest binding | – |
| B2 | modest binding | – |
| B3 | – | strong binding |
